Assay results from US20160282364A1, “ASSAY FOR INSULIN-DEGRADING ENZYME (IDE) INHIBITORS” (PRESIDENT AND FELLOWS OF HARVARD COLLEGE, priority 2013, published 2016).
Where two headings read alike, the source gives them in different places. Blank lines part the entries; values can stand above or below the molecule they belong to.

Protein sequences, listed by entry. Tags and fused reporters are not part of them. Lines headed by an entry give the natural chain unless they say otherwise; changes in a name come on top. Residues count along the entry.
UniProt P14735, 42-1019 limits assumed: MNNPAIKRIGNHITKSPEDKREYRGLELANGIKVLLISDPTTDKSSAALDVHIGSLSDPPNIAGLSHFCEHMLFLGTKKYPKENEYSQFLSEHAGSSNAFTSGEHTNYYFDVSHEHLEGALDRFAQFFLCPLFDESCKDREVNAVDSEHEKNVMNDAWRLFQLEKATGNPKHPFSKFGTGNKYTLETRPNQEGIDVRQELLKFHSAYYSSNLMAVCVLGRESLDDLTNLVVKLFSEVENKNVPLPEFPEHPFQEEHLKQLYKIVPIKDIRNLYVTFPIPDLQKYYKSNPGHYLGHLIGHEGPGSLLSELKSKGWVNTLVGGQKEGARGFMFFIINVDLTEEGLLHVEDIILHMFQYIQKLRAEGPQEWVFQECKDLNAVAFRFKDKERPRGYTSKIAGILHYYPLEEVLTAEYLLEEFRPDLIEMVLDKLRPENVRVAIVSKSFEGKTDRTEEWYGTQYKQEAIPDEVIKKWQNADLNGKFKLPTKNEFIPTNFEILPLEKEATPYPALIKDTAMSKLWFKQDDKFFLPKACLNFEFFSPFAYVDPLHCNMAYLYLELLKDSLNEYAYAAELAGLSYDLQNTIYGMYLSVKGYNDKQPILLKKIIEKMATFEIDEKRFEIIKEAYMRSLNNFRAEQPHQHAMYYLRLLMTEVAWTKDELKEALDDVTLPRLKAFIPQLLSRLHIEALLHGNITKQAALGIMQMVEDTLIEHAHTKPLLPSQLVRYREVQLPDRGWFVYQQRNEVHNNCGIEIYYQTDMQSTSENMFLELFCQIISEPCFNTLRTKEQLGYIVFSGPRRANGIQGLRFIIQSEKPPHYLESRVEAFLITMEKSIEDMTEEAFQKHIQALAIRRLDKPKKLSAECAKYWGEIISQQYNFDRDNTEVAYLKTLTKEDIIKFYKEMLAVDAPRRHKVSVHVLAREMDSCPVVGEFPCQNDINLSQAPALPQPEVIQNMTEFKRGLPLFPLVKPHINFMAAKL
UniProt P14735, 42-1019 A479L limits assumed: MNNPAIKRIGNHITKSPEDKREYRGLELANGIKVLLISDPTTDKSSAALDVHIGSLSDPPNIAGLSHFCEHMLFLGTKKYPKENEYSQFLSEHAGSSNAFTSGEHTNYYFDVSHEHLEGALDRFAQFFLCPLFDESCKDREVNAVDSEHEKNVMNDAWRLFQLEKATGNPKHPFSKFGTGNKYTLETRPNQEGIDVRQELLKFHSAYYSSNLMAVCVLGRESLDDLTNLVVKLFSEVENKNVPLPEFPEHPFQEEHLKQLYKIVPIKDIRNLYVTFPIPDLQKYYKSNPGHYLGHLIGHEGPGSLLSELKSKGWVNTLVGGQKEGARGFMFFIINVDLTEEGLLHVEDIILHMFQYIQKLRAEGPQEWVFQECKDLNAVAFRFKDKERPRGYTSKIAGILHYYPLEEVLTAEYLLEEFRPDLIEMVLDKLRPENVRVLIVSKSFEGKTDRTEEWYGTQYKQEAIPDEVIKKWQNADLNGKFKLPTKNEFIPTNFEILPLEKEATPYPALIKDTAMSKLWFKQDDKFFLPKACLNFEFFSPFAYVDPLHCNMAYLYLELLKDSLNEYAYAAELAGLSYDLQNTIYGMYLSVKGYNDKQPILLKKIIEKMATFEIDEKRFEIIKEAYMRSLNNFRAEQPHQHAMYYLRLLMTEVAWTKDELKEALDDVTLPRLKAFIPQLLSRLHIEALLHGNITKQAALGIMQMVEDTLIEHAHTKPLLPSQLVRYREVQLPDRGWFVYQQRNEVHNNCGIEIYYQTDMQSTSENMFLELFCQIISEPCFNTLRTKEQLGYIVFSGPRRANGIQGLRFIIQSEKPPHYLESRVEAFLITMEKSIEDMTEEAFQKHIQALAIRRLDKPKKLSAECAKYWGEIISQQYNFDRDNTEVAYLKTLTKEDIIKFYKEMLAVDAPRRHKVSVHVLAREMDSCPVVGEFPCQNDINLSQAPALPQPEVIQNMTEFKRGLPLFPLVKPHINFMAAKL
UniProt P14735, 42-1019 A198Q limits assumed: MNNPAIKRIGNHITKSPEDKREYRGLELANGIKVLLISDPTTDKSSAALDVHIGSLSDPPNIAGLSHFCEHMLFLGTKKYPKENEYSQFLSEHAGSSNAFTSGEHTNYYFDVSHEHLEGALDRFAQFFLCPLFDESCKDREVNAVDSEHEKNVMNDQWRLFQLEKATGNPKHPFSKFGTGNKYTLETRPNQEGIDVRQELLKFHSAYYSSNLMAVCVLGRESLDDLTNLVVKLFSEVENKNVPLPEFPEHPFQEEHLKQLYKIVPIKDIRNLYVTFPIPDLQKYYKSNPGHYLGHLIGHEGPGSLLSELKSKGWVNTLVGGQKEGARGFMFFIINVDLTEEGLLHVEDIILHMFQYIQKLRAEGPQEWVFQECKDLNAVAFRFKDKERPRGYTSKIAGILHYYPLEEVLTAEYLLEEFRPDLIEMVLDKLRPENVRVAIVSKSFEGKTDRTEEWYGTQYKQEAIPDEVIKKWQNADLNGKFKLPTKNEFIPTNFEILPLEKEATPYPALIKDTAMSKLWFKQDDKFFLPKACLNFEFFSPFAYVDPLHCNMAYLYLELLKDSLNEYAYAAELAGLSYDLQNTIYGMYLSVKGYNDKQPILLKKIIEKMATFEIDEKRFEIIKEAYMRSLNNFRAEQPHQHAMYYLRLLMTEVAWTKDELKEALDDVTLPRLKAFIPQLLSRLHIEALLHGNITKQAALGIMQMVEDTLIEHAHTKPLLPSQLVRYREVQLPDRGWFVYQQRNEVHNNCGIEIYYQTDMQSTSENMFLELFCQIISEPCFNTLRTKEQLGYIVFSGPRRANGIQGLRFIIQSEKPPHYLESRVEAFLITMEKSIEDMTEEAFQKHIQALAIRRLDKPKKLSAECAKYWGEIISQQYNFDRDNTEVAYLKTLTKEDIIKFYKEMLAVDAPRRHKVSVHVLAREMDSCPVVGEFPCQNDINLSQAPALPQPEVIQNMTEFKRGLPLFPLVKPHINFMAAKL
UniProt P14735, 42-1019 A198T limits assumed: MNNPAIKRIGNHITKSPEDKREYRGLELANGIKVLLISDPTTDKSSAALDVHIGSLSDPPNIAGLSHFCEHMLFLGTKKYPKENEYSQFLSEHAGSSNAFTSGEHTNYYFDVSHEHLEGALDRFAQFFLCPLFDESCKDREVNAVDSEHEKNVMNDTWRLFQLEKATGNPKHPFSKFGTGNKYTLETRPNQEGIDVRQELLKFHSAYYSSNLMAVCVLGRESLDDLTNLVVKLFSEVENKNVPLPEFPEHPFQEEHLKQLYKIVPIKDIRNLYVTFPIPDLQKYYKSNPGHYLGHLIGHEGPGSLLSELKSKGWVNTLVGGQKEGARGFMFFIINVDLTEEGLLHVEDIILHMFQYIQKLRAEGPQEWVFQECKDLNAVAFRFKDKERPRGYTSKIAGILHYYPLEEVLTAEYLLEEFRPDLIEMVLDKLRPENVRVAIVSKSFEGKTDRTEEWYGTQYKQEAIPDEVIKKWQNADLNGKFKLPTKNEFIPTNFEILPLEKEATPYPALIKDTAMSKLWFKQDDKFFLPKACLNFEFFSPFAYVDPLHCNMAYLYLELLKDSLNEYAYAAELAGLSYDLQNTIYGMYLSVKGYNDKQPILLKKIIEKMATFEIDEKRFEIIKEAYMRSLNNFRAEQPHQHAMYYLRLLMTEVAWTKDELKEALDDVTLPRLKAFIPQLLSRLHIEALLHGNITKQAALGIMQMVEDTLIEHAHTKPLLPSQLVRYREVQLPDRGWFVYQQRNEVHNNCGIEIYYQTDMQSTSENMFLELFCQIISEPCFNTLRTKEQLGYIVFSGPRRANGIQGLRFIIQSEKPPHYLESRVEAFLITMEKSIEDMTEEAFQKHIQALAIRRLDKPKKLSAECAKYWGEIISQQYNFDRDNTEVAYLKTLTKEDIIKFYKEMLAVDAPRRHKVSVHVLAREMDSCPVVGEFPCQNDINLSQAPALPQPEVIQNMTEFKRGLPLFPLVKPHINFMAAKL
UniProt P14735, 42-1019 A198Y limits assumed: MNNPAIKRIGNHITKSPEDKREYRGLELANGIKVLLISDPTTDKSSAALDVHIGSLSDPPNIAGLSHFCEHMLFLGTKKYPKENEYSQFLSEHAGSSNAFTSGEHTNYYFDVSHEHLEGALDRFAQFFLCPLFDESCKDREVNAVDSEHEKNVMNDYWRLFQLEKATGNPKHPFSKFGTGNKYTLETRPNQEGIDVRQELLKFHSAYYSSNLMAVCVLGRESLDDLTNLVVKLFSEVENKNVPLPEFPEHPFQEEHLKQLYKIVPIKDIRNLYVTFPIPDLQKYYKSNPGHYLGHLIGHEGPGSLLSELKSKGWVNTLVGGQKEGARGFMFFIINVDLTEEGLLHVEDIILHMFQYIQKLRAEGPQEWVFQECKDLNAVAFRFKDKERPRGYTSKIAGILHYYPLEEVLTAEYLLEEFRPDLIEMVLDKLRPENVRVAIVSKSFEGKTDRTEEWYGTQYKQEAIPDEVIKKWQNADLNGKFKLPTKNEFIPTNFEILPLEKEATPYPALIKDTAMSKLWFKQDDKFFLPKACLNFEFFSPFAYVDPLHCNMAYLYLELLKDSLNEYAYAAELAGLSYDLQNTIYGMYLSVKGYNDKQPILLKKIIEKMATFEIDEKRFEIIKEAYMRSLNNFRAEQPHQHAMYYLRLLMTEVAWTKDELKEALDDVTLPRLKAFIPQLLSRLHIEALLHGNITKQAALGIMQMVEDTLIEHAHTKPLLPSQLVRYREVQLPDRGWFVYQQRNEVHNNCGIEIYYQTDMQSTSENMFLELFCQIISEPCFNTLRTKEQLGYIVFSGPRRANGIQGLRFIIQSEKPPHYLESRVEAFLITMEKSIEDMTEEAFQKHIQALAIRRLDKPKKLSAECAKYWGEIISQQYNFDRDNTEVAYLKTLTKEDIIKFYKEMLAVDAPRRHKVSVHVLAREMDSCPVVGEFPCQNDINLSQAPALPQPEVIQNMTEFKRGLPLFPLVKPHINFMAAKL
UniProt P14735, 42-1019 F202L limits assumed: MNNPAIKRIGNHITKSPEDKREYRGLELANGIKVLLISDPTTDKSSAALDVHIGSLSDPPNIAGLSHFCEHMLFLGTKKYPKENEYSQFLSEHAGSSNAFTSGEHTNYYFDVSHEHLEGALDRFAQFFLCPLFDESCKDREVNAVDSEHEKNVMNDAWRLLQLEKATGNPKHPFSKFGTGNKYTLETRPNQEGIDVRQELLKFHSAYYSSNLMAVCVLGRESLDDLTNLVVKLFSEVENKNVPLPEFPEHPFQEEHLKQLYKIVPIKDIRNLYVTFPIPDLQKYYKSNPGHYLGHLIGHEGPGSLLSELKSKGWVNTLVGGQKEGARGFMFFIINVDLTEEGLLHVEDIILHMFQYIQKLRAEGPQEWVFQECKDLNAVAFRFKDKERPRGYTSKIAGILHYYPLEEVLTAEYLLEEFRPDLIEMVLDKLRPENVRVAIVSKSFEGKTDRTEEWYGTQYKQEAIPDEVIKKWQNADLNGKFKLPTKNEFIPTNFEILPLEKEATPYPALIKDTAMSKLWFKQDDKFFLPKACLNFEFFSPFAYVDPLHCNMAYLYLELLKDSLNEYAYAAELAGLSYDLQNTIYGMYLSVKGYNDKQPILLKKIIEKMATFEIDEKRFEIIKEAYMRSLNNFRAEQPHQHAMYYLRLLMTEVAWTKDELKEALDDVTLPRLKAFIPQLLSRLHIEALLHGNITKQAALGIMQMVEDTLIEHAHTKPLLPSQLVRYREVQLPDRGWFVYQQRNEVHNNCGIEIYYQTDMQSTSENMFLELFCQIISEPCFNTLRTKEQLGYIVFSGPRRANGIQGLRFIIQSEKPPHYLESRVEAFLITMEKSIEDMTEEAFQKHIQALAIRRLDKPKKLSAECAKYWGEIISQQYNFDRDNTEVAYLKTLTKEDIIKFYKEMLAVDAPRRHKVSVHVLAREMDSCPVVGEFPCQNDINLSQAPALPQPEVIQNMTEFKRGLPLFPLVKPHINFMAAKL
UniProt P03956, 100-469 limits assumed: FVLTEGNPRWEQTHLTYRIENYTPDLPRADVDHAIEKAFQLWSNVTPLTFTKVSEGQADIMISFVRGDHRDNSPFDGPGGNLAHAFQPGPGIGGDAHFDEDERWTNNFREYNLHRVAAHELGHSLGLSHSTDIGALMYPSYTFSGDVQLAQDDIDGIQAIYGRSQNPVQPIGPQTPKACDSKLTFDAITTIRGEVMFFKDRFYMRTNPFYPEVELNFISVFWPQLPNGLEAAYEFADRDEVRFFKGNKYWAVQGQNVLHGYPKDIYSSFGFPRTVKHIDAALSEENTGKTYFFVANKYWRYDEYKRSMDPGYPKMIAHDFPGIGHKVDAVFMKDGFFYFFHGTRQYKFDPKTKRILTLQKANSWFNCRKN

Key:
IDE = IDE (Homo sapiens, UniProt P14735); test: Protease assay with fluorogenic peptide substrate Mca-[…](Dnp)-OH (IDE species not given); type: biochemical
Procedure: All data points and error bars represent mean±SEM. Significance tests were performed using two-tail Student's t-test, and significance levels shown in the figures are p<0.05 (*) or p<0.01 (**) versus the vehicle-only control group. The in vitro selection of the DNA-templated macrocycle libraryl^16,17 used 20 μg His6-tagged mouse IDE immobilized on cobalt magnetic beads (Dynabeads, Invitrogen). IDE proteolytic activity was assayed with fluorogenic peptide Mca-[…](Dnp)-OH (R&D). IDE inhibition was confirmed using an anti-insulin antibody time-resolved FRET assay (Cysbio), and using an LCMS assay for CGRP cleavage fragments CGRP1-17 and CGRP18-37 in plasma^18. […] Stable-isotope LCMS quantitation of 6bK in biological samples was performed by spiking heavy-labeled 6bK synthesized using ^13C6^15N2 lysine (Sigma-Aldrich). Protease assays with fluorogenic peptide substrates. The proteases IDE42-1019, recombinant human IDE42-1019 (R&D Systems), neprilysin (R&D), and angiotensin-converting enzyme (R&D) were assayed using the fluorophore/quencher-tagged peptide substrate Mca-[…](Dnp)-OH (R&D) according to the manufacturer's instructions and recommended buffers. […] The enzyme mixtures (48 μL) were transferred to a 96-well plate and combined with 2 μL of inhibitor in DMSO solutions, in 3-fold dilution series. […]

neurolysin (NLN) = neurolysin (NLN) (Homo sapiens, UniProt Q9BYT8); test: Protease assay with substrate Mca-PLGPK(Dnp)-OH
[1] = target: thimet oligopeptidase (THOP) (Homo sapiens, UniProt P52888); test: Protease assay with substrate Mca-PLGPK(Dnp)-OH
[2] = target: angiotensin converting-enzyme (ACE) (Homo sapiens, UniProt P12821); test: Protease assay with fluorogenic peptide substrate
neprilysin (NEP) = neprilysin (NEP) (Homo sapiens, UniProt P08473); test: Protease assay with fluorogenic peptide substrate
[3] = target: matrix metalloprotease 1 (MMP1) (Homo sapiens, UniProt P03956); test: Protease assay with substrate Mca-KPLGL-Dpa-AR-NH2
hIDE WT = hIDE WT (Homo sapiens, UniProt P14735); test: Small molecule-enzyme mutant complementation study, wild type; type: biochemical
Procedure: (§1) Protease assays with fluorogenic peptide substrates. The proteases IDE42-1019, recombinant human IDE42-1019 (R&D Systems), neprilysin (R&D), and angiotensin-converting enzyme (R&D) were assayed using the fluorophore/quencher-tagged peptide substrate Mca-[…](Dnp)-OH (R&D) according to the manufacturer's instructions and recommended buffers. For IDE the recommended buffer is 50 mM Tris pH 7.5, 1 M NaCl. The enzyme mixtures (48 μL) were transferred to a 96-well plate and combined with 2 μL of inhibitor in DMSO solutions, in 3-fold dilution series. The mixtures were allowed to equilibrate for 10 min and the enzymatic reaction was started by addition of substrate peptide in assay buffer (50 μL), mixed, and monitored on a fluorescence plate reader (excitation at 320 nm, emission at 405 nm). Similarly, thimet oligopeptidase (R&D) and neurolysin (R&D) were assayed using substrate Mca-PLGPK(Dnp)-OH (R&D) according to the manufacturer's instructions and recommended buffers. Matrix metalloproteinase-1 (R&D) was activated and assayed according to the manufacturer's instructions with substrate Mca-KPLGL-Dpa-AR-NH2 (R&D). All assay data points were obtained in duplicate. Data for the Yonetani-Theorell double inhibition plot was generated using 1 μL of each inhibitor (6bK, and Ii1 or bacitracin) under otherwise identical conditions as above, at concentrations corresponding to ⅓×, 1×, 3× and 9× of respective IC50 values against hIDE (R&D).^54,55
Site-directed mutagenesis, expression, and purification of human IDE. […]
All PCR products were purified on microcentrifuge membrane columns (MinElute®, Qiagen) and quantified by UV absorbance (NanoDrop). […]
The plasmid was extracted using a microcentrifuge membrane column kit (Miniprep®, Qiagen), and the sequence of genes and vector junctions were confirmed by Sanger sequencing (Table 6). […] Expression of His6-tagged IDE proteins was induced when the culture measured OD600 ˜0.6 by addition of isopropyl-β-D-1-thiogalactopyranoside (IPTG) to 1 mM final concentration, incubated overnight at 37° C., followed by centrifugation at 10,000 g for 30 min at 4° C. […]

hIDE A198Q = hIDE A198Q (Homo sapiens, UniProt P14735, A198Q); test: Small molecule-enzyme mutant complementation study; type: biochemical; details: A198Q vs hIDE WT, batch 1
Procedure: as §1
(§2) Site-directed mutagenesis, expression, and purification of human IDE. The reported N-His6-tagged human IDE42-1019 construct was introduced in the expression plasmid pTrcHis-A (Invitrogen) using primers for uracil-specific excision reactions (USER) by Taq (NEB) and Pfu polymerases (PfuTurbo CX®, Agilent). The IDE gene was amplified with the primers 5′-[…]-dU-[…] and 5′-[…] G-dU-[…] (underlined sequences represent overhangs, and italics highlight the PCR priming sequence). Similarly, the pTrcHis-A vector was amplified for USER cloning with the primers 5′-[…] TGA-dU-[…] CCC and 5′-[…]-dU-[…]. Mutant IDE constructs were generated by amplifying the full vector construct with USER cloning primers introducing a mutant overhang (Table 5).
(§3) All PCR products were purified on microcentrifuge membrane columns (MinElute®, Qiagen) and quantified by UV absorbance (NanoDrop). Each fragment (0.2 pmol) was combined in a 10 μL reaction mixture containing 20 units DpnI (NEB), 0.75 units of USER mix (Endonuclease VIII and Uracil-DNA Glycosylase, NEB), 20 mM Tris-acetate, 50 mM potassium acetate, 10 mM magnesium acetate, 1 mM dithiothreitol at pH 7.9 (1× NEBuffer 4). The reactions were incubated at 37° C. for 45 min, followed by heating to 80° C. and slow cooling to 30° C. (0.2° C./s). The hybridized constructs were directly used for heat-shock transformation of chemically competent NEB turbo E. coli cells according to the manufacturer's instructions. Transformants were selected on carbenicillin LB agar, and isolated colonies were cultured overnight in 2 mL LB.
(§4) The plasmid was extracted using a microcentrifuge membrane column kit (Miniprep®, Qiagen), and the sequence of genes and vector junctions were confirmed by Sanger sequencing (Table 6). The plasmid constructs were transformed by heat-shock into chemically-competent expression strain Rosetta 2 (DE3) pLysS E. coli cells (EMD Millipore), and selected on carbenicillin/chloramphenicol LB agar. Cells transformed with IDE pTrcHis A constructs were cultured overnight at 37° C. in 2 XYT media (31 g in 1 L) containing 100 μg/mL ampicillin and 34 μg/mL chloramphenicol. Expression of His6-tagged IDE proteins was induced when the culture measured OD600 ˜0.6 by addition of isopropyl-β-D-1-thiogalactopyranoside (IPTG) to 1 mM final concentration, incubated overnight at 37° C., followed by centrifugation at 10,000 g for 30 min at 4° C. […]

hIDE A198T = hIDE A198T (Homo sapiens, UniProt P14735, A198T); test: Small molecule-enzyme mutant complementation study; type: biochemical; details: A198T vs hIDE WT, batch 2
Procedure: as §1, §2, §3, §4

hIDE A198Y = hIDE A198Y (Homo sapiens, UniProt P14735, A198Y); test: Small molecule-enzyme mutant complementation study; type: biochemical; details: A198Y vs hIDE WT, batch 2
Procedure: as §1, §2, §3, §4

hIDE F202L = hIDE F202L (Homo sapiens, UniProt P14735, F202L); test: Small molecule-enzyme mutant complementation study; type: biochemical; details: F202L vs hIDE WT, batch 1
Procedure: as §1, §2, §3, §4

hIDE F202R = hIDE F202R (Homo sapiens, UniProt P14735, F202R); test: Small molecule-enzyme mutant complementation study; type: biochemical; details: F202R vs hIDE WT, batch 2
Procedure: as §1, §2, §3, §4

hIDE G361Q = hIDE G361Q (Homo sapiens, UniProt P14735, G361Q); test: Small molecule-enzyme mutant complementation study; type: biochemical; details: G361Q vs hIDE WT, batch 3
Procedure: as §1, §2, §3, §4

hIDE G362Q = hIDE G362Q (Homo sapiens, UniProt P14735, G362Q); test: Small molecule-enzyme mutant complementation study; type: biochemical; details: G362Q vs hIDE WT, batch 3
Procedure: as §1, §2, §3, §4

hIDE I310R = hIDE I310R (Homo sapiens, UniProt P14735, I310R); test: Small molecule-enzyme mutant complementation study; type: biochemical; details: I310R vs hIDE WT, batch 2
Procedure: as §1, §2, §3, §4

hIDE I374M = hIDE I374M (Homo sapiens, UniProt P14735, I374M); test: Small molecule-enzyme mutant complementation study; type: biochemical; details: I374M vs hIDE WT, batch 1
Procedure: as §1, §2, §3, §4

hIDE K364A = hIDE K364A (Homo sapiens, UniProt P14735, K364A); test: Small molecule-enzyme mutant complementation study; type: biochemical; details: K364A vs hIDE WT, batch 2
Procedure: as §1, §2, §3, §4

hIDE V360Q = hIDE V360Q (Homo sapiens, UniProt P14735, V360Q); test: Small molecule-enzyme mutant complementation study; type: biochemical; details: V360Q vs hIDE WT, batch 1
Procedure: as §1, §2, §3, §4

hIDE V360R = hIDE V360R (Homo sapiens, UniProt P14735, V360R); test: Small molecule-enzyme mutant complementation study; type: biochemical; details: V360R vs hIDE WT, batch 3
Procedure: as §1, §2, §3, §4

hIDE W199F = hIDE W199F (Homo sapiens, UniProt P14735, W199F); test: Small molecule-enzyme mutant complementation study; type: biochemical; details: W199F vs hIDE WT, batch 2
Procedure: as §1, §2, §3, §4

hIDE W199Y = hIDE W199Y (Homo sapiens, UniProt P14735, W199Y); test: Small molecule-enzyme mutant complementation study; type: biochemical; details: W199Y vs hIDE WT, batch 2
Procedure: as §1, §2, §3, §4

hIDE Y314F = hIDE Y314F (Homo sapiens, UniProt P14735, Y314F); test: Small molecule-enzyme mutant complementation study; type: biochemical; details: Y314F vs hIDE WT, batch 2
Procedure: as §1, §2, §3, §4

hIDE A479L = hIDE A479L (Homo sapiens, UniProt P14735, A479L)
[4] = tested on: lean and DIO C57BL/6J mice; test: Oral glucose tolerance test (OGTT); details: lean (80 mg/kg) and DIO (60 mg/kg) mice, single i.p. dose 30 min before glucose gavage 3.0 g/kg, vs vehicle; tested form: TFA salt
[5] = tested on: lean and DIO C57BL/6J mice; test: i.p. injected glucose tolerance test (IPGTT); details: tested form: TFA salt

IC50 (IDE): 0.6 nM | IC50 (neurolysin (NLN)): 185 nM | IC50 [1]: 6 nM | inhibition [2]: not | inhibition (neprilysin (NEP)): not | inhibition [3]: not | IC50 shift (hIDE WT; batch 1 (reference)): 1.0 fold | IC50 shift (hIDE WT; batch 2 (reference)): 1.0 fold | IC50 shift (hIDE WT; batch 3 (reference)): 1.0 fold | IC50 shift (hIDE A198Q): 1.0 fold | IC50 shift (hIDE A198T): 1.0 fold | IC50 shift (hIDE A198Y): 1.1 fold | IC50 shift (hIDE F202L): 1.7 fold | IC50 shift (hIDE F202R): 1.1 fold | IC50 shift (hIDE G361Q): 0.9 fold | IC50 shift (hIDE G362Q): 0.6 fold | IC50 shift (hIDE I310R): 1.9 fold | IC50 shift (hIDE I374M): 1.0 fold | IC50 shift (hIDE K364A): 1.0 fold | IC50 shift (hIDE V360Q): 0.9 fold | IC50 shift (hIDE V360R): 0.9 fold | IC50 shift (hIDE W199F): 1.8 fold | IC50 shift (hIDE W199Y): 1.4 fold | IC50 shift (hIDE Y314F): 1.0 fold | IC50 shift (hIDE A479L): 0.9
Structure (SMILES): N=C(N)NCCC[C@H](NC(=O)C(CC(=O)NO)Cc1ccc2ccccc2c1)C(=O)N[C@@H](Cc1c[nH]c2ccccc12)C(=O)N[C@@H](CCC(=O)O)C(N)=O (stereo partly drawn)

IC50 (IDE; tested form: TFA salt): > 100000 nM
Structure (SMILES): NCCCC[C@H]1NC(=O)/C=C/C(=O)N[C@H](C(N)=O)CCCCNC(=O)[C@@H](Cc2ccc(C(=O)c3ccccc3)cc2)NC(=O)[C@@H](CC2CCCCC2)NC1=O
oral glucose tolerance [4]: similar | IPGTT response at high dose ([5]; DIO mice, 90 mg/kg): potential weak activity | glucose tolerance after i.p. glucose injection ([5]; lean and DIO mice, glucose 1.5 g/kg i.p., vs vehicle): neither effect was observed

IC50 shift (hIDE A479L): > 600
Structure (SMILES): NC(=O)CC[C@@H]1NC(=O)/C=C/C(=O)N[C@H](C(N)=O)CCCCNC(=O)[C@@H](Cc2ccc(C(=O)c3ccccc3)cc2)NC(=O)[C@H](CC2CCCCC2)NC1=O
